Values quoted from earlier work, collected in paper PMC10453589.

Biological target: amyloid beta (Homo sapiens) (UniProt P05067)

Kd: 1 nM
Substance: calmodulin (from UniProt P0DP23)
